Structures can show the parent of a compound that is named as a salt.

Sequences of proteins named here, by UniProt entry; tags and fusion partners are left off. Residues count along the entry.
UniProt P30532, 23-468: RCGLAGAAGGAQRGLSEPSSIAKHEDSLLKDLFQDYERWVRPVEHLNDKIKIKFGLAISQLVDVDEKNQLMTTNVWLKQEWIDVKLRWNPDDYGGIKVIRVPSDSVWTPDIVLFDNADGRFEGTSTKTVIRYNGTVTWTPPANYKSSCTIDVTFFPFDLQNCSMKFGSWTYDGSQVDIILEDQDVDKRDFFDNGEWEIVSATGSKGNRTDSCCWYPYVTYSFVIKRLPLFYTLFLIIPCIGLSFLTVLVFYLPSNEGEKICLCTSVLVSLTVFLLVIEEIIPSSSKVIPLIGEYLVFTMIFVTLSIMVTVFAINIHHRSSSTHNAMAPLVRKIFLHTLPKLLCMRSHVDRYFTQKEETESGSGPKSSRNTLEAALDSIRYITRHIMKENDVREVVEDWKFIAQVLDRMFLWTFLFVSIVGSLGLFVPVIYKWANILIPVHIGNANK
UniProt P30926, 22-498: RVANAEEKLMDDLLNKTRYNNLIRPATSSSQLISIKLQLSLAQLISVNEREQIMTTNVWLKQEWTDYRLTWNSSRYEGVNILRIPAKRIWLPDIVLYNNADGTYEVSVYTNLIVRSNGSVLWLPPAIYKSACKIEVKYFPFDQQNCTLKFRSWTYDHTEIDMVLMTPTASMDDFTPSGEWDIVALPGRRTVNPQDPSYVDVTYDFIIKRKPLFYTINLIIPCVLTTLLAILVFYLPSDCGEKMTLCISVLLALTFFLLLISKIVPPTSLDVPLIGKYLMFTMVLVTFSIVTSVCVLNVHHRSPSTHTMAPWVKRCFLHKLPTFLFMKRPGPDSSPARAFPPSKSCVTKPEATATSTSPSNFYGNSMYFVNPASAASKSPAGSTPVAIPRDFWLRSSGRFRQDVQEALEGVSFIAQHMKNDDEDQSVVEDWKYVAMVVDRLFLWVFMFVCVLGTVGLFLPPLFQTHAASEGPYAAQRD
UniProt P32297, 32-505: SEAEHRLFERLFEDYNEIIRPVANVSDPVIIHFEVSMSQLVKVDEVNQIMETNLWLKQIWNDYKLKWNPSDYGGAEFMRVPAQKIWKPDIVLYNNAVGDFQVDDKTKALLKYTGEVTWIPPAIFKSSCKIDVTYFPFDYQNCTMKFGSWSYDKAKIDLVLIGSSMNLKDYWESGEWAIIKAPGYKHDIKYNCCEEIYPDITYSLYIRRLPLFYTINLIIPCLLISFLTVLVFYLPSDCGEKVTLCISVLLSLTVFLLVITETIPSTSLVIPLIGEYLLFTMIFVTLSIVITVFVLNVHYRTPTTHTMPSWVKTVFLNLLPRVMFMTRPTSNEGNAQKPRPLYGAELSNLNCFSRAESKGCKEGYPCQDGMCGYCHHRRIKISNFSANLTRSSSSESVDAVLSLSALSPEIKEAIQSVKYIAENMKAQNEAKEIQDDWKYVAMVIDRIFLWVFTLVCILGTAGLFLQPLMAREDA

This note sets out measurements from PMC4748418 (Journal of chromatography. A, 2015).

One assay has as its target α3β4α5 nAChR (Homo sapiens, UniProt P30532+P30926+P32297). Description: biochemical.
Another assay addresses α3β4 nAChR (Homo sapiens, UniProt P30926+P32297). Description: biochemical.

`CNC1(C)C2CCC(C2)C1(C)C` (centres unmarked) [MCM, Mecamylamine hydrochloride]: the Kd on α3β4α5 nAChR is 3.4 µM; at α3β4 nAChR it was 8.5 µM.
